Reference: PubChem BioAssay AID540303 (National Center for Advancing Translational Sciences (NCATS), 2011)
Hit rate of the full screen: of about 330,000 compounds, about 1,000 (0.3%) were called active. These results got no clear call from the source, so the numbers are uncertain. Calls follow the shape of the dose curve; as a rule, active = well fitted inhibition curve with a large enough effect; inconclusive = small, poorly fitted or top-dose-only effect; inactive = no such curve, though single readings can be large or run the other way; tested in mouse RAW 264.7 cells.
Potency is read from the fitted curve at half-maximal effect.

Assay: qHTS for Inhibitors of Cell Surface uPA Generation; also: nearly all actives have a fitted effect of over 55% in size
Settings: cell surface uPA generation assay
Description: The overall objective of this project is to perform a quantitative high throughput screen (qHTS) to identify novel compounds that inhibit the generation of cell surface urokinase activity. The urokinase plasminogen activator (uPA) is one of the two primary endogenous systems that mediate plasminogen activation into plasmin. Members of this system, including uPA and its receptor (uPAR), are overexpressed in several malignant tumors. This system plays a major role in adhesion, migration, invasion and metastasis of cancer cells. Small molecule inhibitors of the uPA system will serve as probes to understand the molecular mechanisms of the uPA cascade and better understanding the microenvironmental circumstances that facilitate the activation of plasminogen by uPA, and finally may provide novel candidate agents for anticancer drug therapy.
[…] […] Upon inhibition of the uPA activation cascade, the subsequent cell surface uPA activity-dependent translocation of LF into the cytoplasm is inhibited. ATP-Lite is used to measure intracellular ATP concentrations, which remain increased if LF entry into the cytoplasm is inhibited. This validation assay was performed using a small set of validation compounds.
NIH Chemical Genomics Center [NCGC]
NIH Molecular Libraries Probe Centers Network [MLPCN]
Assay Submitter (PI): Thomas Bugge, National Institute of Dental and Craniofacial Research, NIH
Cultured RAW 264.7 were dispensed into 1536-well clear bottom, white walled tissue culture plates at a density of 4000 cells/well and were incubated overnight (12-16 h) at 37 C in a 5% CO2 incubator. Serially diluted compounds in 23 nl DMSO were added to cells. […] Compound and reagent-treated plates were incubated for 24 h at 37 C in a 5% CO2 incubator. Perkin Elmer ATPlitetrade mark 1 step (3 ul) was then added to each well. Luminescence was detected using a Perkin Elmer ViewLuxtrade mark plate reader.
1.Dispensing RAW 264.7 cells into 1536-well, white walled tissue culture plates at a density of 4000 cells/well (4 uL).
2.Incubation at 37 C in a 5% CO2 incubator overnight.
3.Serially diluting compounds (1:5 serial dilution; 0.0024 uM to […] final concentration) in 23 nl DMSO.
5.Incubating the compound and reagent-treated plates for 24 hours at 37 C in a 5% CO2 incubator.
6.Adding ATP-Lite (3 ul).
7.Reading plates by ViewLux with an exposure length of 5 seconds.
In the case of `C[C@H]1[C@@H](OS(=O)(=O)O)C[C@@H]2C[C@H]([C@@H](O)c3cc(=O)[nH]c(=O)[nH]3)NC3=NC[C@H]1N32`, the Potency is reported as inconclusive: 31.6 nM. For `COc1ccc(O)c2c(=O)c3c(OC)cc4c(c3oc12)C1C=COC1O4` (stereo unspecified), the Potency was inconclusive: 1000 nM. For `O=[N+]([O-])c1ccc(O)c(/C=N/Nc2ccc([N+](=O)[O-])cc2[N+](=O)[O-])c1`, the Potency was inconclusive: 22400 nM. For `CCC1=CC2Cc3nc4ccc(Cl)cc4c(N)c3C(C1)C2` (stereo unspecified), the Potency was inconclusive: 28200 nM. With `C=C(C=O)CC1CC(O)[C@]2(C)OC3CC4OC5C[C@]6(C)O[C@]7(C)CCC8OC9C[C@]%10(C)OC%11C(C)=CC(=O)OC%11CC%10OC9C[C@@H](C)C8OC7CC6O[C@]5(C)CC5OC5C4OC3CC2O1` (stereo partly specified) the Potency was inconclusive: 2820 nM. For `C[As](C)(=O)O`, the Potency was inconclusive: 1120 nM.
